CC50 data for two molecules are collected here from publication PMC8765781, “A platform of assays for the discovery of anti-Zika small-molecules with activity in a 3D-bioprinted outer-blood-retina model” (PLoS ONE, 2022).

The nature of data set [1]: in vitro. The conditions noted are these: African green monkey.
Data set [2] in a line: in vitro. The conditions noted are these: human.
The nature of data set [3]: in vitro. The conditions noted are these: human. This is another data set of the same source.

Take `CC(=O)O[C@@H]1[C@@H](O)[C@H]2O[C@@H]3C=C(C)[C@@H](O)C[C@]3(CO)[C@]1(C)[C@]21CO1` [NCGC00380400-01, NT-2 toxin]: the values for the CC50 in “in vitro [1]” and in “in vitro [2]” were > 50 µM and > 30 µM, respectively.
Turning to `CC1=C[C@H]2O[C@@H]3[C@H](O)C[C@](C)([C@@]2(CO)[C@H](O)C1=O)[C@]31CO1` [NCGC00180572-02, vomitoxin], the values for the CC50 in the data set “in vitro [1]”, in the data set “in vitro [2]” and in “in vitro [3]” were > 50 µM, > 30 µM and > 30 µM, respectively.
